As to Baby Blue acetamidobenzyl EDTA [BBA], the “excretory route, share via liver” value (in the presence of CHA255 (20 µg and 200 µg)) is “about 50%”. Further, the tissue penetration entry (without antibody (Table II)) is “negligible”.

(Values after patent EP0217577B1, “Antibody complexes of hapten-modified diagnostic or therapeutic agents” (HYBRITECH INCORPORATED, priority 1985, dated 1987).)
